Test results from EP0888303B1, “SYNTHETIC DERIVATIVES OF RAPAMYCIN AS MULTIMERIZING AGENTS FOR CHIMERIC PROTEINS WITH IMMUNOPHILIN-DERIVED DOMAINS” (ARIAD Pharmaceuticals, Inc, priority 1996, dated 1997).
Like-named read-outs stand apart in the source and are kept apart here.

Protein sequences, listed by entry. Tags and fused reporters are not part of them. Lines headed by an entry give the natural chain unless they say otherwise; changes in a name come on top. Residues count along the entry.
UniProt P62942, whole entry, looked up, stated change not applied: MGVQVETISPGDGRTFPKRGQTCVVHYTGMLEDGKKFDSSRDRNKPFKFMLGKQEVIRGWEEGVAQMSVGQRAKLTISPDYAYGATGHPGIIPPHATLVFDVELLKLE
UniProt P62942, 2-108 F37L limits assumed: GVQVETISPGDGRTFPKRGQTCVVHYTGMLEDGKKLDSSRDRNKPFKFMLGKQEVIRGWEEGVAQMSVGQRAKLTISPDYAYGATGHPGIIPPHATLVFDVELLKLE
UniProt P62942, 2-108 limits assumed: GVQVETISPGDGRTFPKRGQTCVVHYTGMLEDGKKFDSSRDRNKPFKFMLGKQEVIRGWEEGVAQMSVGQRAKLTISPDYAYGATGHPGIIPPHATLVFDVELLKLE

Columns and labels:
F36L mutant FKBP = F36L mutant FKBP (Homo sapiens, UniProt P62942, F37L); experiment: Competitive Binding FP Assay
F36S mutant FKBP = F36S mutant FKBP (UniProt P62942); experiment: Competitive Binding FP Assay; conditions: read-out: F36S IC50; Synthetic Monomers table; normalized to value of FK506 run in the same experiment
wild-type human FKBP12 = wild-type human FKBP12 (Homo sapiens, UniProt P62942); experiment: Competitive Binding FP Assay; conditions: read-out: wild-type IC50; Synthetic Monomers table; normalized to value of FK506 run in the same experiment
F36M mutant FKBP = F36M mutant FKBP (UniProt P62942); experiment: Competitive Binding FP Assay; design: species or system human; conditions: read-out: F36M IC50; Synthetic Monomers table; normalized to value of FK506 run in the same experiment
F36A mutant FKBP = F36A mutant FKBP (UniProt P62942); experiment: Competitive Binding FP Assay; design: species or system human; conditions: read-out: F36A IC50; Synthetic Monomers table; normalized to value of FK506 run in the same experiment
F36I mutant FKBP = F36I mutant FKBP (UniProt P62942); experiment: Competitive Binding FP Assay; design: species or system human; conditions: read-out: F36I IC50; Synthetic Monomers table; normalized to value of FK506 run in the same experiment
mutant (F36V) FKBP = mutant (F36V) FKBP (UniProt P62942); experiment: Competitive Binding FP Assay; design: species or system human
[1] = system: FAS-FKBP fusion (wt FKBP) in HT1080 cells; experiment: Apoptosis Assay, Fas killing (wt, stable); type: cell-based, human; conditions: read-out: Fas killing (wt, stable) EC50; mean values
[2] = system: FKBP-containing fusion proteins (wt FKBP); experiment: Transcription Assay, activation of reporter gene transcription (wt; stable); type: cell-based, human; conditions: at 1000 nM; each value an individual experiment
[3] = read-out: F36L IC50, Synthetic Monomers table, normalized to value of FK506 run in the same experiment
[4] = read-out: F36V IC50, Synthetic Monomers table, normalized to value of FK506 run in the same experiment
[5] = read-out: FKBPF36V binding affinity IC50, Synthetic Multimerizers table, monomer value in brackets, mean of duplicates, normalized to FK506 = […] (substituted phenyl/lower aliphatic series: to AP1903 values)

SMILES | IC50 (F36L mutant FKBP; [3]) [nM] | IC50 (F36S mutant FKBP) [nM] | IC50 (wild-type human FKBP12) [nM] | IC50 (F36M mutant FKBP) [nM] | IC50 (F36A mutant FKBP) [nM] | IC50 (F36I mutant FKBP) [nM] | IC50 (mutant (F36V) FKBP; [4]) [nM] | IC50 (mutant (F36V) FKBP; [5]) [nM] | EC50 [1] [nM] | IC50 (F36L mutant FKBP; read-out: FKBPF36L binding affinity IC50) [nM] | activation of transcription (wt; stable): % @ 1000 [2] [% @ 1000]
CCC(C)C(C(=O)N1CCCC[C@H]1C(=O)O[C@H](CCc1ccc(OC)c(OC)c1)c1cccc(OCC(=O)O)c1)c1ccccc1 (stereo partly drawn) | 24 | 47 | 9580 | 16 | 21 | 8 | 13 | 6.9 | – | – | –
COc1ccc(CC[C@@H](OC(=O)[C@@H]2CCCCN2C(=O)[C@H](c2cc(OC)c(OC)c(OC)c2)C(C)C)c2cccc(OCC(=O)NCCNC(=O)COc3cccc([C@@H](CCc4ccc(OC)c(OC)c4)OC(=O)[C@@H]4CCCCN4C(=O)[C@H](c4cc(OC)c(OC)c(OC)c4)C(C)C)c3)c2)cc1OC | – | – | – | – | – | – | – | 7 | 200 to 300 | 9.6 | 3
CCCC(CCC)C(=O)N1CCCC[C@H]1C(=O)O[C@H](CCc1ccc(OC)c(OC)c1)c1cccc(OCC(=O)O)c1 | 269 | – | > 100000 | 362 | 207 | 307 | 77 | – | – | – | –
